This note sets out measurements from publication PMC4580987, “Catalytic site inhibition of insulin-degrading enzyme by a small molecule induces glucose intolerance in mice” (Nature Communications, 2015).

Test [1] has as its system isolated mouse islets. The conditions noted are these: 1 versus vehicle. As for the experimental part:
Digestion was stopped by addition of cold HBSS with 10% FCS. The islets were washed twice in HBSS with FCS and once in RPMI with FCS. […] The next day, the islets were incubated in fresh DMEM with 10% FCS without glucose for 90 min. Then glucose at 2.8 mM together with BDM44378 was added; after 1 h, the supernatant was removed and replaced by fresh medium with 28 mM glucose, followed by another 1-h incubation in the presence or absence of inhibitor.

The target in test [2] is T1, IDE (Homo sapiens, UniProt P14735).
T1 sequence (P14735 1-1019): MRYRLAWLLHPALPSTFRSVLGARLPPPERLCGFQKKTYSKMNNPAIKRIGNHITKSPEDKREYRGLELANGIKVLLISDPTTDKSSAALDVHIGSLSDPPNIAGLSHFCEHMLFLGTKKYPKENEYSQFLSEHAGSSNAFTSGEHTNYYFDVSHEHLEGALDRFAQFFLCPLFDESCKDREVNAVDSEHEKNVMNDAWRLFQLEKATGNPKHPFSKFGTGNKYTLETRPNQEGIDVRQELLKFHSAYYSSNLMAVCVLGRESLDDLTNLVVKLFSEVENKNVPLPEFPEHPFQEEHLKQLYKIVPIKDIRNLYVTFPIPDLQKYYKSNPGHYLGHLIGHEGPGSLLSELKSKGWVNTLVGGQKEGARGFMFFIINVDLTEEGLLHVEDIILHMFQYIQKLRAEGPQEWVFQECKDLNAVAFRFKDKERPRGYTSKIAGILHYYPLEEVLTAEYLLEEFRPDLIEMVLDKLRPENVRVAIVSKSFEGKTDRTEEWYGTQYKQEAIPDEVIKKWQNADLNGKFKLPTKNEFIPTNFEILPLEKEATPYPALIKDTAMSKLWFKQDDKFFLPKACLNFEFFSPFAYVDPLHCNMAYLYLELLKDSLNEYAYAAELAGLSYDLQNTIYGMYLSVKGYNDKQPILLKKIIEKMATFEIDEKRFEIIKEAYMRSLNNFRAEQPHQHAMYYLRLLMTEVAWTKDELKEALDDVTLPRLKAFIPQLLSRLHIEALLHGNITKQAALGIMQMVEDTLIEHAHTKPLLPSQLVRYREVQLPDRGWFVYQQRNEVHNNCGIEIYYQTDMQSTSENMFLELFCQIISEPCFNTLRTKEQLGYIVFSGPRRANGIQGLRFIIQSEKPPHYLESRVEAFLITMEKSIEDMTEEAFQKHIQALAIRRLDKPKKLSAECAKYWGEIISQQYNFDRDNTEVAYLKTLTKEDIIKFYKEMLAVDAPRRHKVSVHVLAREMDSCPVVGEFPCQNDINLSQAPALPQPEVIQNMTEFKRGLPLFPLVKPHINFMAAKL
As to the kind of experiment: 19F NMR ligand-observed interaction with the enzyme. The format is binding. The conditions noted are these: 5 μM enzyme. Also on record: made in house. Here is the method: The ^19F NMR measurements were done at 20 °C using 3 mm tubes containing 200 μl of sample on a Bruker 600 MHz Avance I spectrometer equipped with a CP-QCI-F cryoprobe with Fluor Cryo-detection. ^19F NMR experiments were done on control samples with compound 1 or compound 16 at 50 μM, 37.5 μM, 25 μM, 12.5 μM and 6.25 μM, in a 50 mM Hepes 100 mM NaCl buffer with a constant percentage (1%) of DMSO. […] The carrier frequency was set at −100 p.p.m. with a spectral window of 40 ppm, and 4,024 scans were recorded per sample, except for the 6.25 μM sample for which 12,288 scans were recorded.

Test [3] has as its target T1, IDE. As to the kind of experiment: Reversibility of IDE inhibition by rapid dilution. The format is biochemical. The conditions noted are these: compound at IC50 × 10.
The test system of test [4] is C57BL/6J mice. As to the kind of experiment: Oral glucose tolerance test (OGTT) in C57BL/6J mice. In kind it is in vivo, mouse. The conditions noted are these: 50 mg kg^−1 ip, 3 g kg^−1 oral glucose. As for the experimental part: OGTT and IPGTT were performed on 11 to 16 week-old male or female mice (n=4–7 per experimental group). C57BL/6J mice were purchased from Charles River Laboratories (France), Stock no. 000664. C57BL/6J Ide−/− mice were obtained from Guenette[20] and bred in the animal facility of INSERM U1151. WT C57BL/6J mice of the same genetic background were bred in the same animal facility in parallel. NOD Ide−/− mice were generated by backcrossing C57BL/6J Ide−/− mice with NOD wt mice bred in the animal facility of INSERM U1151 and maintained in this facility together with WT NOD mice. Normoglycemic WT and Ide−/− female NOD mice aged 14 weeks were used for OGTTs. Following a 6 h fasting period, a small tail cut was made, basal blood glucose was determined. […] Fifteen minutes later, blood glucose concentrations were measured before and after (up to 120 min, as shown) oral (2 g kg^−1 or 3 g kg^−1, as shown) or intraperitoneal (1.5 g kg^−1) glucose administration. […] Blood glucose levels were determined using an Accu-Check glucometer (Roche Diagnostics). Areas under the curves (AUC) for OGTT and IPGTT were calculated to evaluate glucose tolerance. Plasma insulin concentrations were measured by ELISA (cat. no. 10-1247-01,Mercodia) in blood samples collected 15 min before and 15 and 90 min relative to oral glucose injection. […]

In the case of `O=C(C[C@@H](Cc1ccc2ccccc2c1)n1cc(CNC(=O)c2ccc(F)cc2)nn1)NO` [Compound 1], the “ratio of stimulation of insulin secretion by low and high glucose” value in test [1] is “not altered”. For the same compound, the “19F NMR signal in the presence of enzyme at 2:1 or 1:1 compound:enzyme ratio” value in test [2] is “vanishing signal”. Also, the “enzyme activity after rapid 100-fold dilution of enzyme–inhibitor mixture (reversibility)” value in test [3] is recorded as “fully recovered”. In addition, the “AUC of glycaemia in OGTT, WT C57BL/6J” value in test [4] was “significantly increased”.
